Measured affinities in a library of Ab-91 heavy chain variants

From the AlphaSeq antibody data of Engelhart et al. 2022 (doi:10.1038/s41597-022-01779-4), copy in the FLAb collection.

Antigen: PDVDLGDISGINAS, a 14-residue peptide of the SARS-CoV-2 spike HR2 region.

Parent: Ab-91, a human scFv built as VL, the linker GGGGSGGGGSGGGGS, VH. Only the CDRs of the heavy chain vary.
VL: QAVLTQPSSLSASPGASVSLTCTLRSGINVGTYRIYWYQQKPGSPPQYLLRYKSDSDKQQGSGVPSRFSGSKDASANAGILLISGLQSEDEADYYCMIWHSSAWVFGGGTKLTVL
VH: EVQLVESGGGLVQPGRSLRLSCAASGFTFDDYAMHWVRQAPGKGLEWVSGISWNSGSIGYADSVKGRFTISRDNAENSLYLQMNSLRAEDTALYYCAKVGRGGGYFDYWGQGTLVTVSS

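The starting antibody came from a phage panning campaign against this peptide. In library AAYL51, one, two or three CDR residues were substituted; doubles and triples were drawn at random. Affinity was read by AlphaSeq, a pooled yeast mating assay with surface-displayed partners. The frequency of each diploid, read from paired DNA barcodes, reflects how well the two displayed proteins bind. The ratio of observed to expected reads was calibrated, replicate by replicate, on BCL2-family standards whose Kd was known from biolayer interferometry. Mating was done three times.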

Changes read parent residue, position, new residue, counted from the first residue of the VH shown.
Affinities are written as log10 Kd with Kd in nM; a lower number is a better binder.
A mean of the replicates is given; it leaves out those without a signal.
Where no diploid with the target was found in that replicate, the entry reads "ND": below detection, most likely a poor binder, though not proof of it.

changes	log10 Kd (nM) by replicate	mean log10 Kd (nM)	signal with controls
S52A+S63H+Y105T	ND / ND / ND	ND	3/9 (3.64)
G102R+Y105G+Y108R	1.73 / 1.06 / 1.64	1.48	0/9
S52N	4.25 / 3.72 / ND	3.98	3/9 (4.13)
Y32K+Y60G+V64T	ND / ND / ND	ND	5/9 (4.61)
Y32L+K65E+Y105T	ND / ND / ND	ND	2/9 (4.25)
G26D+Y32L+I51H	5.68 / ND / ND	5.68	3/9 (4.73)
I51S+D62V+F106S	ND / ND / ND	ND	1/9 (4.18)
D31S+W53L+I58V	5.47 / ND / 4.80	5.13	2/9 (4.72)
G26R+D31P+S52M	ND / 5.99 / ND	5.99	3/9 (4.73)
F29P+W53F+Y60I	ND / ND / ND	ND	0/9
M34G+S55K	ND / 3.30 / ND	3.30	2/9 (3.59)
D30P+A33W+A61M	ND / ND / ND	ND	1/9 (3.21)
T28C+D31Q+Y60N	ND / ND / ND	ND	2/9 (3.89)
G26M+S63W+G102V	5.26 / ND / ND	5.26	3/9 (4.33)
S57C+I58S+Y60P	4.74 / ND / 5.08	4.91	2/9 (5.09)
N54M+Y60A+G103R	ND / ND / ND	ND	0/9
T28M+K65S+G103Y	ND / 4.46 / ND	4.46	0/9
G50S+Y60A+R101I	ND / ND / 4.91	4.91	6/9 (4.85)
Y60K+G103C+Y108R	4.95 / 6.30 / 5.16	5.47	7/9 (5.71)
D31K+A33L+G50M	ND / ND / ND	ND	0/9
S63G+G100Q	4.84 / ND / ND	4.84	3/9 (3.53)
I51V+G59D+K65A	ND / ND / ND	ND	1/9 (3.70)
Y32M+S57H+Y108A	ND / ND / ND	ND	2/9 (2.59)
D31A+S63H+R101S	2.08 / 1.96 / 1.65	1.90	3/9 (4.50)
V64S+Y105N	ND / ND / ND	ND	2/9 (3.55)
H35W+S57N+I58Q	ND / ND / ND	ND	0/9
D30K+S52V	ND / 4.97 / ND	4.97	2/9 (3.51)
G50A+D107I	ND / 4.75 / ND	4.75	1/9 (3.10)
F27K+G50I+G104R	ND / ND / ND	ND	4/9 (4.19)
G104V	ND / ND / ND	ND	1/9 (5.21)
G26R+N54Y+G103C	ND / ND / 4.41	4.41	1/9 (4.12)
M34Y+G100E+G103L	ND / ND / ND	ND	1/9 (3.81)
Y60I+V64Q+R101H	ND / ND / ND	ND	0/9
G56N+Y60A	4.23 / ND / ND	4.23	0/9
D31R+I51T+W53C	3.76 / 5.58 / 4.65	4.67	3/9 (4.83)
M34W+W53R+F106Q	ND / 4.37 / ND	4.37	1/9 (4.83)
S52L+W53V+S57W	4.74 / ND / ND	4.74	1/9 (3.67)
Y32E+M34Y+S55N	ND / 3.81 / 4.53	4.17	1/9 (3.31)
K65T+R101F	1.18 / 1.39 / 0.90	1.16	4/9 (4.36)
D30N+D62L+G103S	3.12 / 2.82 / 2.68	2.88	1/9 (3.51)
F29K+G100F+Y108C	ND / ND / ND	ND	0/9
T28W+G50S+S63F	ND / 4.40 / 4.14	4.27	6/9 (4.19)
I51V+G59E+G100Y	ND / ND / ND	ND	1/9 (2.64)
F29Y+G50F+A61V	ND / ND / ND	ND	2/9 (2.44)
D30Y+K65I+D107F	ND / ND / ND	ND	0/9
F27P+S55E+D107V	ND / ND / ND	ND	0/9
F29K+I58W+R101D	5.74 / 5.63 / ND	5.68	4/9 (4.86)
G56R+G103N+Y105D	3.96 / ND / ND	3.96	1/9 (4.21)
D30G+I58D+G100H	1.08 / 1.14 / 0.53	0.92	6/9 (4.99)
S55F+G56P+V99N	4.81 / 5.87 / 5.37	5.35	9/9 (5.13)
H35L+G102K+F106Y	ND / ND / ND	ND	2/9 (3.35)
H35T+N54S+A61C	ND / ND / 4.54	4.54	2/9 (5.03)

Excerpt, the first 9 entries:

changes	log10 Kd (nM) by replicate	mean log10 Kd (nM)	signal with controls
S52A+S63H+Y105T	ND / ND / ND	ND	3/9 (3.64)
G102R+Y105G+Y108R	1.73 / 1.06 / 1.64	1.48	0/9
S52N	4.25 / 3.72 / ND	3.98	3/9 (4.13)
Y32K+Y60G+V64T	ND / ND / ND	ND	5/9 (4.61)
Y32L+K65E+Y105T	ND / ND / ND	ND	2/9 (4.25)
G26D+Y32L+I51H	5.68 / ND / ND	5.68	3/9 (4.73)
I51S+D62V+F106S	ND / ND / ND	ND	1/9 (4.18)
D31S+W53L+I58V	5.47 / ND / 4.80	5.13	2/9 (4.72)
G26R+D31P+S52M	ND / 5.99 / ND	5.99	3/9 (4.73)

Three control strains display no target. For library AAYL51, 21% of the pairings with them gave a signal, with a median of 4.54 and one signal in twenty below 3.26, so weak values seen in few replicates may be background. For each scFv, signals with the empty controls are counted beside the result, with their mean in brackets.